Source: US20130189186A1, “APOPTOSIS IMAGING AGENTS BASED ON LANTIBIOTIC PEPTIDES” (GE HEALTHCARE LIMITED, priority 2010, published 2013)

Target: phosphatidyl ethanolamine
Assay: Biacore affinity for phosphatidyl ethanolamine (POPE/POPC liposomes captured on L1 chip)
Format: binding
Settings: Biacore 3000, L1 chip, POPE/POPC liposomes (20% PE)
Source text: A Biacore 3000 (GE Healthcare, Uppsala) was equipped with an L1 chip. Liposomes made of POPE/POPC (20% PE) were applied for the affinity study using the capture technique recommended by the manufacturer. Each run consisted of activation of the chip surface, immobilization of liposomes, binding of peptide and wash off of both liposomes and peptide (regeneration). Similar applications can be found in Frostell-Karlsson et al [Pharm. Sciences, V.94 (1), (2005)]. Thorough washing of needle, tubing and liquid handling system with running buffer was performed after each cycle.
BIACORE software: The BIACORE control software including all method instructions was applied. A method with commands was also written in the BIACORE Method Definition Language (MDL) to have full control over pre-programmed instructions. BIACORE evaluation software was applied for analysing the sensorgrams. […] The KD for all substances was less than 100 nM.

## Duramycin
  Kd: ~5 nM
  kd: ~8e-05 s⁻¹
